{"source": "paper PMC12860355", "biological_target": "monomeric actin (ATP–G-actin), chicken skeletal muscle (chicken) (UniProt P68139)", "assay": "SPR; actin on chip; RanGTP 0–1250 nM, 180 s association, 300 s dissociation; two-state kinetic fit"}
{"substance": "RanGTP (RanQ69L loaded with GTP) (from UniProt P62826 1-216) (natural protein)", "values": [{"measurement": "Kd", "value": 300, "unit": "nM"}]}
